Reference: patent US20100158980A1, “DRUG DELIVERY DEVICES FOR DELIVERY OF THERAPEUTIC AGENTS” (priority 2008, published 2010)

Source text: The active agent may be any active agent suitable to treat the desired condition. […] Examples include, but are not limited to, acetazolamide, dorzolamide HCl, timolol maleate, and ethacrynic acid sodium salt.

Substance: albumin: albumin (approximately 67 kDa) labeled with fluorescein isothiocyanate (BSA-FITC, Fluka), mixed with unlabeled albumin 1:9
- solubility class: high solubility
